According to patent publication US6921811B2, “Bioactive coating composition and methods” (BioSurface Engineering Technologies, Inc., priority 1998, dated 2005):

System: C3H10T1/2 cells
Test: Attachment of C3H10T1/2 cells to silyl-heparin coated wells complexed with adhesive molecules, crystal violet
Assay type: cell-based, murine
Parameters: unit not given here
Conditions: after two hours; hydrogel-polystyrene 96-well plates coated with silyl-heparin complexes and the listed adhesive molecule; proteins 100 μg/ml, serum undiluted
Description: Attachment of C3H10T1/2 cells after two hours to wells of 96-well, hydrogel-polystyrene plates coated with silyl-heparin complexes and the listed adhesive molecule was detected by staining with crystal violet. All proteins were used at a concentration of 100 μg/ml in buffered saline. Serum was used without dilution. Statistical significance was assessed relative to the values from buffered saline using Student's t-test, with * indicating p<0.05, ** indicating p<0.01 and *** indicating p<0.001.

albumin: protein used at 100 μg/ml on silyl-heparin coated wells
attachment of C3H10T1/2 cells by crystal violet staining, Average ± S.E.: 0.08 ± 0.00
